Assay: Excipient compatibility study
Format: physicochemical
Experimental: In this Example, the physical and chemical compatibility of methylone drug substance, 50 mg with various commonly used solid dosage form excipients, as well as methylone active pharmaceutical ingredient (API) alone, was analyzed. Analyses were conducted at t=0, 2, 4 and 8 weeks for appearance, assay, and related substances for samples stored in closed vials at 25° C./60% RH and 40° C./75% RH.
Excipient Compatibility Sample Mixtures: The excipients and API were dispensed individually by weight into 20 mL clear borosilicate (type I) glass vials to fill the appropriate weights as listed in Table 12. Table 12 lists mixtures of API with varied excipients and a stand-alone control sample of API alone. Each excipient mixture sample preparation was conducted using a clean spatula to mix the vial ingredients for 30-60 seconds. Each vial was properly labeled with the description and storage conditions. One vial was used for testing at the initial (t=0) time point. Three vials, closed, were placed at each storage condition to allow sampling at each time point and one vial, closed, was placed at each storage condition for overage.
Excipient Compatibility Sample Analysis: Each individual vial sampled at the requested time points was analyzed for the following parameters: (a) Appearance (Visual); Assay (HPLC); (c) Related Substances (HPLC).

CNC(C)C(=O)c1ccc2c(c1)OCO2 (stereo not drawn) [methylone, 3,4-methylenedioxy-N-methylcathinone]
Assay (% Recovery) (2 Week 25° C./60% RH, closed vial): 99.7 % Recovery
Assay (% Recovery) (4 Week 25° C./60% RH, closed vial): 100.3 % Recovery
Assay (% Recovery) (4 Week 40° C./75% RH, closed vial): 99.6 % Recovery
Assay (% Recovery) (8 Week 25° C./60% RH, closed vial): 98.2 % Recovery
Assay (% Recovery) (8 Week 40° C./75% RH, closed vial): 100.3 % Recovery
Assay (% Recovery) (t = 0): 100.6 % Recovery
